Measured values published in patent US20050175695A1, “Carvedilol free base, salts, anhydrous forms or solvates thereof, corresponding pharmaceutical compositions, controlled release formulations, and treatment or delivery methods” (priority 2003, published 2005).

How the values were obtained:
[1] = Solubility in water of carvedilol free base and monocitrate salt over time (Table 11); assay type: physicochemical; conditions: 25° C.
[2] = Aqueous solubility at 25° C. of carvedilol free base and three salts (Table 13); assay type: physicochemical; conditions: for pH of the solution: 25° C.

Carvedilol Monocitrate Monohydrate [Carvedilol Mono-Citrate Salt]
pH of the filtered solution ([1]; 1 hr): 3.5
pH of the filtered solution ([1]; 4 hr): 3.4
pH of the filtered solution ([1]; 24 hr): 3.0
aqueous solubility compared with free base [2]: much better aqueous solubility than the free base
pH of the solution ([2]; 1 hr): 3.3
pH of the solution ([2]; 4 hr): 3.2
pH of the solution ([2]; 24 hr): 3.2
